Amino acid sequences for entries named in this document (tags omitted).
UniProt Q06124, whole entry: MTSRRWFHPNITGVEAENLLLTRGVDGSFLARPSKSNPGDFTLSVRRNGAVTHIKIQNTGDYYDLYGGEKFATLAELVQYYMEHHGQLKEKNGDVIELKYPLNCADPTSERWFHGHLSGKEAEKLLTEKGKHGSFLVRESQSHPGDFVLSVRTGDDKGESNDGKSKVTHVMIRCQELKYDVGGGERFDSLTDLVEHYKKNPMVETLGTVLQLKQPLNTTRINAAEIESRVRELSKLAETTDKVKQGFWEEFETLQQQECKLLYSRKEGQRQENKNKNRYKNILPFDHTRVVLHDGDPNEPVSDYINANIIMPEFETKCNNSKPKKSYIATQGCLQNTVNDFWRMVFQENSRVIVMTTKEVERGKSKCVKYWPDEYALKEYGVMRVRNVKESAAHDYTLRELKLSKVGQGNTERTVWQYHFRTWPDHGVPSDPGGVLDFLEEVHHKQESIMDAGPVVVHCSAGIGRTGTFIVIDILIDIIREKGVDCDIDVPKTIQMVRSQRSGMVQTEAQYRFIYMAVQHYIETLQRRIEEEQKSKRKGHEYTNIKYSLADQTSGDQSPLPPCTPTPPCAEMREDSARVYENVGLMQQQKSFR
UniProt Q12809, whole entry: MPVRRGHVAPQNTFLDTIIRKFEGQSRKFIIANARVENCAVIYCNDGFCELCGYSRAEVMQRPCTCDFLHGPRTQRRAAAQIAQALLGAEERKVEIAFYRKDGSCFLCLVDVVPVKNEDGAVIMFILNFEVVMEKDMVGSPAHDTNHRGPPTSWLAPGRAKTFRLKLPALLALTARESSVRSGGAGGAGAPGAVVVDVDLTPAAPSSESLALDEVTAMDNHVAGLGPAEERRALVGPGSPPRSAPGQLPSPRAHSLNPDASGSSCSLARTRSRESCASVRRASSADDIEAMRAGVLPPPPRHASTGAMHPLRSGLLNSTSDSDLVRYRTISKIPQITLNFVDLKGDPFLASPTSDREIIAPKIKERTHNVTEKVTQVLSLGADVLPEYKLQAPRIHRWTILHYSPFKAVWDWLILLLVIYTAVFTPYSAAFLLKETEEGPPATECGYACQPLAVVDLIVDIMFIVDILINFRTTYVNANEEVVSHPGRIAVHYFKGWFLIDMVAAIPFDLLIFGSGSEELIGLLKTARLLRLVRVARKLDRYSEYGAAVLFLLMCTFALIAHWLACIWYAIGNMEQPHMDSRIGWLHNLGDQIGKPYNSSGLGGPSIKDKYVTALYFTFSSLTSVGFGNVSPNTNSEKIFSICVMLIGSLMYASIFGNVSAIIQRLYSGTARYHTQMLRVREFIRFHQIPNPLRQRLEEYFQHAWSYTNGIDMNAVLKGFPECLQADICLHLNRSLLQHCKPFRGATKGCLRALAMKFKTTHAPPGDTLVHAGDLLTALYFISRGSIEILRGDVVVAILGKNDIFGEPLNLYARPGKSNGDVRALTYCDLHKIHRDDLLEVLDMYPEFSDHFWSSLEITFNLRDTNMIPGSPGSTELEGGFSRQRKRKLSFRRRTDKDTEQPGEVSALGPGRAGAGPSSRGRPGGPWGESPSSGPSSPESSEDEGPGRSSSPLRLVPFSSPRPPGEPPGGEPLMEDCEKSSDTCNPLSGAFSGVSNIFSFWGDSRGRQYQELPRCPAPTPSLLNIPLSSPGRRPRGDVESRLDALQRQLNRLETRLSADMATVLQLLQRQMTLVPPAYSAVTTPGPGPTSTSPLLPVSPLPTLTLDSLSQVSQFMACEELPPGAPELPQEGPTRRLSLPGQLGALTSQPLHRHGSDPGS

According to US20230212180A1, “SUBSTITUTED PYRAZINE COMPOUND, PHARMACEUTICAL COMPOSITION COMPRISING SAME, AND USE THEREOF” (Sichuan Kelun-Biotech Biopharmaceutical Co., Ltd., priority 2020, published 2023):

What was measured:
[1] = molecular target: recombinant full-length human PTPN11 (SHP2) (Homo sapiens, UniProt Q06124); assay: Inhibition of in vitro enzyme activity of SHP2 (DiFMUP fluorescence endpoint assay); conditions: read-out: IC50 (nM), inhibition of the SHP2 enzyme activity; SHP2 0.5 nM, DiFMUP 200 μM, IRS-1 0.5 μM; 60 min incubation; tested form: trifluoroacetate
Procedure: Test Example 1: Experiment on the Inhibition of In Vitro Enzyme Activity of SHP2 (Protein Phosphatase)
phosphatase: recombinant full-length human PTPN11 (SHP2), active (SignalChem);
substrate: 6,8-difluoro-4-methylumbelliferyl phosphate (DiFMUP) (Invitrogen);
activating peptide: IRS1_pY1172(dPEG8)pY1222 (IRS1) (BPS Bioscience);
terminator: bpv(phen) (bpv) (Abcam).
SHP2 concentration: 0.5 nM;
DiFMUP concentration: 200 μM;
IRS-1 concentration: 0.5 μM;
bpv concentration: 160 μM;
buffer systems: 60 mM Hepes pH 7.2; 75 mM NaCl; 75 mM KCl; 0.05% surfactant P20; 1 mM EDTA; 5 mM DTT;
incubation duration of compound and enzyme: 60 minutes;
reaction time of enzyme and substrate: 30 minutes;
parameters for microplate reader: BMG PHERAstar fluorescence microplate reader at an excitation wavelength of 340 nm and an emission wavelength of 450 nm.
Test group: A mixture of the test compound and the phosphatase SHP2 together with the activating peptide IRS-1 were incubated in the buffer system at room temperature for 60 minutes. The substrate DiFMUP was added to initiate the reaction and incubated at room temperature for 30 minutes. Thereafter, bpv was added to terminate the reaction. The reaction plate was placed in the microplate reader, and the fluorescence intensities of the wells in the plate were measured using an endpoint assay. […]

[2] = system: KYSE-520 cell (human esophageal squamous cell carcinoma cell); assay: Inhibition of the proliferation activity of KYSE-520 cell (CellTiter-Glo); conditions: read-out: KYSE-520, IC50; KYSE-520 cell proliferation, 5 days; tested form: trifluoroacetate
Procedure: Test Example 2: Experiment on the Inhibition of the Proliferation Activity of KYSE-520 Cell (Human Esophageal Squamous Cell Carcinoma Cell)
cell: KYSE-520 (JCRB Cell Bank);
kit: CellTiter-Glo® Luminescent Cell Viability Assay Kit (Promega).
inoculation amount of cell: 1500 cells/well;
incubation conditions for compound: 37° C., 5% CO2;
incubation duration: 5 days;
detecting temperature: room temperature;
chemiluminescence detection using the BMG PHERAstar FS reader.
Cells were cultured in a medium containing 10% fetal bovine serum under the culture conditions of 37° C. and 5% CO2. An appropriate amount of cells were plated into a 96-well plate and cultured overnight in an incubator to allow the cells to adhere to the wall. The following day, the medium was removed and a complete medium containing a pre-diluted compound was added and incubated at 37° C. for 5 days. On the fifth day, the detection reagent CellTiter-Glo® was added into each well. Chemiluminescence was adopted to detect the relative luminescence units (RLUs) of the wells.
The result of a well containing cell-free medium, treated with CellTiter-Glo®, was obtained as the blank value. […] The half maximal inhibitory concentration (IC50) of the compound was calculated by fitting the curve according to the four-parameter logistic model.

hERG = hERG (Homo sapiens, UniProt Q12809); assay: Biochemical assay for hERG inhibition (Predictor hERG Fluorescence Polarization Assay Kit); conditions: read-out: IC50 (μM), hERG inhibition assay; competition with affinity tracer 1 nM, 2 hours; tested form: trifluoroacetate
Procedure: Test Example 3: Biochemical Assay for hERG Inhibition
kit: Predictor™ hERG Fluorescence Polarization Assay Kit (ThermoFisher) containing:
Compound E4031 as a positive control;
tracer concentration: 1 nM;
incubation duration: 2 hours;
parameters for microplate reader: BMG PHERAstar FS fluorescence microplate reader.
Test group: The test compounds at different concentrations were added into a microplate containing hERG cell membrane, and the tracer with a high affinity for hERG was then added into each well. The microplate was incubated at 25° C. for 2 hours before detection of the change in fluorescence polarization value (mP) (excitation wavelength: 540 nm; emission wavelength: 590 nm) using a multi-mode microplate reader.
Positive control group: The experimental method for the positive control group was the same as that for the test group, except that the test compound was replaced with 30 μM Compound E4031.
Blank control group: The experimental method for the blank control group was the same as that for the test group, except that the test compound was replaced with the hERG buffer and that the hERG cell membrane was not added.
Based on the data ratios, the percentage inhibition (%) of the compounds of the present disclosure against hERG at different concentrations was calculated and the range of the half maximal inhibitory concentration (IC50) of the compounds was determined. […]

C[C@@H]1OCC2(CCN(c3cnc(Sc4ccnc(N5CC(F)(CO)C5)c4Cl)cn3)CC2)[C@@H]1N
IC50 [1]: 2.2 nM | IC50 [2]: 640 nM | IC50 (hERG): > 10 µM
